Laboratory results as given in patent US20090238760A1, “ANTISPERMATOGENIC, SPERMICIDAL AND/OR ANTIFUNGAL COMPOSITION AND METHODS OF USING THE SAME” (Research Triangle Institute, priority 2006, published 2009).

System: testes / spermatogenesis in Swiss (CD-1) mice
Test: Spermatogenic Index test: testes weight and spermatogenic index after a single oral dose
Format: in vivo, mouse
Conditions: for Spermatogenic Index / Testes Weight: male CD-1 mice, mean ± SEM, n=5; for Spermatogenic Index: 72 h, scale 1 to 6, 5 to 6 normal, vehicle control 5.5 ± 0.16; for Testes Weight: killed 72 h later, vehicle control 204 ± 11.9
Description: The compounds of the invention were tested in mice for their effects on spermatogenesis three days after a single oral dose by the procedure described in Cook et al (J. Med. […] Compounds active in this test have been shown also to be anti-fertility compounds. Compounds were screened for antispermatogenic activity by dosing male mice on day 1 with a gavage dose of control vehicle, positive control (compound 1) or compound of the invention. At 72 h after dosing, animals were killed and the testes were excised, trimmed of fat, and weighed. One testis was examined histologically and rated for spermatogenic potential using the Spermatogenic Index [[…]. Noden, J. Cherry and […]. Reprod. […], 72, 277 (1984)], which is a semiquantitative estimate of the sperm producing ability of the testes. The index is based on histological appearance of the spermatogenic cells in the seminiferous tubules. A scale of 1 to 6 is used with 5 to 6 being the normal status. A second assessment was based on the weight of the testes. […] Compounds were given orally to 8-week old male CD-1 mice in a single dose. Seventy-two hours later the animals were killed and the testes weighed. One testis was subjected to histological analysis and scored according to the Spermatogenic Index (SI) of Fail (see Cook et ah, J. Med. […] RTI-4587-056(l), and a vehicle control group was also analyzed.

[1] = single oral dose 1.2 mg/kg (racemic compound)
[2] = single oral dose 5 mg/kg (racemic compounds)

For “(4aRS, 5SR,9bRS-5-(4-Carboxylphenyl)-2-ethyl-2,3,4,4a,5,9b-hexahydro-8-iodo-7-methyl-1H-indeno-[1,2-c]pyridine n-Hexyl ester Hydrochloride”, the “antispermatogenic activity (in words)” value (esters of the 8-iodo carboxylic acid, analogous to RTI-4587-073) was “had activity”, the Spermatogenic Index [1] was 3.93 · and the “Testes Weight” value [1] was 154.4 ± 6.2 mg.
“(4aRS,5SR,9bRS)-5-(4-Carboxyphenyl)-2-ethyl-2,3,4,4a,5,9b-hexahydro-8-iodo-7-methyl-1H-indeno-[1,2-c]pyridine(S)-2,3-Dihydroxypropyl ester Hydrochloride” was tested, and the Spermatogenic Index [2] was 3.2 · and the “Testes Weight” value [2] was 168.2 ± 16.4 mg.
“(4aS, 5R,9bS)-5-(4-Carbomethoxyphenyl)-2-ethyl-2,3,4,4a,5,9b-hexahydro-7-methyl-8-{2-[4-(N-pyrrolidinonyl)phenyl]ethynyl}-1H-indeno[1,2-c]pyridine” was tested, and the Spermatogenic Index (single oral dose 20 mg/kg) was 2.75 · and the “Testes Weight” value (single oral dose 20 mg/kg) was 133.0 ± 5.7 mg.
For “(4aRS,5SR,9bRS)-5-(4-Carboxylphenyl)-2-ethyl-2,3,4,4a,5,9b-hexahydro-8-iodo-7-methyl-1H-indeno-[1,2-c]pyridine ((R)-2,2-Dimethyl-1,3-dioxolan-4-yl)methyl ester”, the Spermatogenic Index [2] was 2.92 · and the “Testes Weight” value [2] was 156.0 ± 3.2 mg.
“(4aRS,5SR,9bRS)-5-(4-Carboxylphenyl)-2-ethyl-2,3,4,4a,5,9b-hexahydro-8-iodo-7-methyl-1H-indeno-[1,2-c]pyridine ((S)-2,2-Dimethyl-1,3-dioxolan-4-yl)methyl ester” was tested, and the Spermatogenic Index [2] was 3.91 · and the “Testes Weight” value [2] was 152.0 ± 5.9 mg.
In the case of “(4aS, 5R,9bS)-5-(4-Carbomethoxyphenyl)-2-ethyl-2,3,4,4a,5,9b-hexahydro-7-methyl-8-(1-(2-piperidin-1-yl)ethyl)-1H-1,2,3-triazole-4-yl)-1H-ideno[1,2-c]pyridine”, the “Spermatogenic Index” value (single oral dose 20 mg/kg) is reported as 5.20 ± 0.06 and the “Testes Weight” value (single oral dose 20 mg/kg) is reported as 195.5 ± 12.6 mg.
In the case of “(4aRS,5SR,9bRS)-5-(4-Carboxylphenyl)-2-ethyl-2,3,4,4a,5,9b-hexahydro-8-iodo-7-methyl-1H-indeno-[1,2-c]pyridine (R)-2,3-Dihydroxy propyl ester Hydrochloride”, the Spermatogenic Index [2] is reported as 3.04 · and the “Testes Weight” value [2] is reported as 170.1 ± 11.7 mg.
“(4aRS, 5SR, 9bRS)-5-(4-Carboxylphenyl)-2-ethyl-2,3,4,4a,5,9b-hexahydro-8-iodo-7-methyl-1H-indeno-[1,2-c]pyridine 3-hydroxypropyl ester Hydrochloride” was tested, and the Spermatogenic Index [2] was 3.06 · and the “Testes Weight” value [2] was 161.1 ± 4.1 mg.
